The values that follow come from patent publication US20220362122A1, “Hair Treatment Compositions With Amine Derivatives” (ELC Management LLC, priority 2021, published 2022).

The test system of the data set is keratin in hair.

Consider Ammonium hydroxide [reference compound], for which the “% Relative damage level compared to NaOH (TVirgin-TAlkalizer)/(TVirgin-TNaOH)” value is on record as 19.52%.
